The numbers were not newly measured in paper PMC7765920 (Molecules, 2020), which cites them from elsewhere.

The target of the data set is T1, GST-DYRK1A-ΔC (amino acids 1–499 of rat DYRK1A) (Rattus norvegicus, UniProt Q63470).
T1 construct: containing amino acids 1–499 of rat DYRK1A; made in house; host or cells: E. coli
Also noted: method as in PMID 26192590. Particulars: 95% confidence intervals in parentheses; cited from earlier work.

Structures are written as SMILES.

Broadly, the IC50 is the concentration that gives 50% inhibition. Take `COc1ccc2c(c1)[nH]c1c(C)nccc12` [harmine]: the IC50 is 33 to 80 nM.
